# Measurements as given in article PMC4598023 (PLoS ONE, 2015).
# Test: Solubility of the PEGylated human amylin
# Format: physicochemical
# Settings: calculated in the peptide moiety basis
substance,measurement,value
"PEGylated human amylin: human amylin monoconjugated at the N-terminal Lys1 region with 5 kDa methoxyl polyethylene glycol succinimidyl carbonate (mPEGsc5k) (KCNTATCATQRLANFLVHSSNNFGAILSSTNVGSNTY; one methoxy-PEG 5 kDa (from mPEG succinimidyl carbonate) in the N-terminal region, aimed at an amino group of Lys1; C-terminal amide; disulfide bridge between C2 and C7)",solubility,over 10 mg/mL
